The values that follow are results of earlier work, collected in PMC12559310, “Tumor-targeted top1 inhibitor delivery with optimized parp inhibition in advanced solid tumors: a phase i trial of gapped scheduling” (Nature Communications, 2025).

In this data set the test system is NSCLC. Particulars: CRLX101 plus BSC group (12 subjects); cited from earlier work.

With Poly-CD-PEG-Camptothecin [CRLX101], the TEAE asthenia is 12%.
